According to ChEMBL document CHEMBL6096732 (J Med Chem, 2025):

Key:
[1] = Selectivity index, ratio of IC50 for recombinant HDAC10 (unknown origin) to IC50 for recombinant HDAC3 (unknown origin)
[2] = Selectivity index, ratio of IC50 for recombinant full length human HDAC6 to IC50 for recombinant HDAC3 (unknown origin)
[3] = Selectivity index, ratio of IC50 for recombinant HDAC4 (unknown origin) to IC50 for recombinant HDAC3 (unknown origin)
[4] = Selectivity index, ratio of IC50 for recombinant HDAC11 (unknown origin) to IC50 for recombinant HDAC3 (unknown origin)
[5] = Selectivity index, ratio of IC50 for recombinant HDAC1 (unknown origin) to IC50 for recombinant HDAC3 (unknown origin)
[6] = Selectivity index, ratio of IC50 for recombinant HDAC8 (unknown origin) to IC50 for recombinant HDAC3 (unknown origin)
[7] = Selectivity index, ratio of IC50 for recombinant HDAC9 (unknown origin) to IC50 for recombinant HDAC3 (unknown origin)
[8] = Selectivity index, ratio of IC50 for recombinant HDAC2 (unknown origin) to IC50 for recombinant HDAC3 (unknown origin)
[9] = Selectivity index, ratio of IC50 for recombinant HDAC5 (unknown origin) to IC50 for recombinant HDAC3 (unknown origin)
[10] = Selectivity index, ratio of IC50 for recombinant HDAC7 (unknown origin) to IC50 for recombinant HDAC3 (unknown origin)

Ratio IC50 [1]: > 238
Ratio IC50 [2]: 195
Ratio IC50 [3]: > 238
Ratio IC50 [4]: 211
Ratio IC50 [5]: 161
Ratio IC50 [6]: > 238
Ratio IC50 [7]: > 238
Ratio IC50 [8]: 232
Ratio IC50 [9]: > 238
Ratio IC50 [10]: > 238
Structure (SMILES): CCCNNC(=O)c1ccc(Cn2c3ccccc3c3c(-c4ccccn4)nc4ccccc4c32)cc1
